According to patent US20080155704A1, “Methods and Compositions for Determining in vivo Activity of BiP” (King's College London, priority 2006, published 2008):

System: human rheumatoid arthritis synovial membrane (RASM)
Experiment: Human RASM transplanted in SCID mice (RASM/SCID chimeric mouse)
Type: in vivo, human tissue in SCID mice
Settings: 12 days
Procedure: Small pieces of human synovial tissue from patients with rheumatoid arthritis were transplanted into SCID mice. After successful engraftment, BiP (10 μg/animal) or human serum albumin (HSA) (10 μg/animal) were administered intravenously and the tissue removed for histological testing after 12d. […] CD86, HLA-DR, TNFα and IL-6 expression was measured by immunohistology. (B) the weight of explants retrieved from the mice treated as indicated after 12d. In this experiment anti-IL-10 antibody or an isotype control antibody were administered to the mice with the BiP or HSA.
This study used the previously developed SCID-HuRAg murine model (20). Briefly, pannus tissue, consisting of the leading edge of the invading synovial membrane into articular cartilage and bone, was collected as a single mass from RA patients at the time of arthroplastic surgery with full ethical approval. A block of 4-8 mm in diameter was implanted subcutaneously into the back of 6- to 7-week-old male SCID mice (CB.17/Icr; Charles River Japan, Tokyo, Japan), which had been bred under specific pathogen-free conditions. Successful implantation of human RA tissue was assessed visually 4 weeks after implantation, after which therapeutic manipulation of the mice was undertaken. BiP (10 μg/mouse) or HSA (10 μg/mouse) was administrated by single intravenous injection. The mice were sacrificed 12 days after injection to allow removal of the implanted tissue.
The degree of synovial inflammation of the implanted tissue was assessed as previously described. The histological findings were scored according to two different scoring systems: Koizumi's (40) or Rooney's method (41).
Paraffin embedded tissue sections were used for immunostaining for CD86 and HLA-DR. Frozen tissue sections were stained for the detection of cytokines (TNF, IL-1, IL-6, and IL-10). […]
The serum levels of human IL-4, IL-6 and IL-10 were measured by a quantitative sandwich enzyme immunoassay technique (Quantikine HS, R&D systems) according to the manufacturer's instructions.

[1] = 10 μg/mouse single i.v. injection

## human serum albumin [HSA, reference compound]
10 μg/mouse i.v.
  human IL-6 in mouse sera: 1.9 ± 1.9 pg/mL
[1]
  Koizumi score of synovial inflammation: 12±2.2
  Rooney score of synovial inflammation: 27±8.2
